Data taken from patent publication US10918654B1, “Rutin compositions” (Alps Pharmaceutical Ind. Co., Ltd., priority 2019, dated 2021).

Test: Stability of the flavonoid in aqueous L-arginine/sodium ascorbate solution at 50° C., intact amount by HPLC
Format: physicochemical
Conditions: for amount of intact flavonoid remaining, of the initial amount in the solution: dissolved in water with L-arginine and sodium ascorbate, HPLC
Description: A composition containing rutin, L-arginine, and ascorbate was prepared in water by mixing 0.0071 mol rutin with an aqueous solution containing 0.020 mol L-arginine, heating the mixture to 80° C. until the rutin dissolved completely, and adding 0.0010 mol sodium ascorbate.
After cooling the above solution, the stability of rutin was tested by heating the mixture to 50° C. and quantifying the amount of intact rutin remaining by HPLC after 0 h, 5 h, and 24 h.
A similar study was performed to assess the stability of a flavonoid related to rutin, i.e., catechin, after dissolving it with L-arginine and sodium ascorbate. […] It was quite unexpected that only 2.8% of the rutin degraded after 24 h, as compared to 97.7% of the catechin under identical conditions.

Substance: catechin
- amount of intact flavonoid remaining, of the initial amount in the solution (5 h at 50° C.): 30.8%
- amount of intact flavonoid remaining, of the initial amount in the solution (24 h at 50° C.): 2.3%
- flavonoid degraded (after 24 h at 50° C., with L-arginine and sodium ascorbate): 97.7%
